## Membrane permeability of cyclic peptides

Data: CycPeptMPDB; original report Kelly et al. 2021, doi:10.1021/jacs.0c06115.

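Conditions beyond the assay type are not listed; see the original paper. The list need not hold all peptides of the study. Peptides that the database sets to -10, its floor, are left out.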

PAMPA is the parallel artificial membrane permeability assay, which has no cells and reads passive diffusion.
MDCK values are permeabilities across Madin-Darby canine kidney cell monolayers.
Permeability is in 10^-6 cm/s, converted from the database's log10 values; higher is more permeable.
"n/a" marks a cell with nothing listed here.

CC(=O)N1CCC[C@H]1C(=O)N(C)[C@H](CC(C)C)C(=O)N[C@@H]1C(=O)N(C)[C@@H](CC(C)C)C(=O)N(C)[C@@H](CC(C)C)C(=O)N[C@H](CC(C)C)C(=O)N[C@@H](C)C(=O)N[C@H](CC(C)C)C(=O)N2CCC[C@@H]2C(=O)O[C@@H]1C has PAMPA 0.91 × 10^-6 cm/s.
CC(=O)N1CCC[C@@H]1C(=O)N(C)[C@@H](CC(C)C)C(=O)N[C@@H]1C(=O)N[C@H](CC(C)C)C(=O)N(C)[C@H](CC(C)C)C(=O)N[C@H](CC(C)C)C(=O)N[C@@H](C)C(=O)N[C@H](CC(C)C)C(=O)N2CCC[C@H]2C(=O)O[C@@H]1C has PAMPA 2 × 10^-6 cm/s.
CC(=O)N1CCC[C@@H]1C(=O)N(C)[C@H](CC(C)C)C(=O)N[C@@H]1C(=O)N[C@H](CC(C)C)C(=O)N[C@H](CC(C)C)C(=O)N(C)[C@H](CC(C)C)C(=O)N(C)[C@@H](C)C(=O)N[C@H](CC(C)C)C(=O)N2CCC[C@H]2C(=O)O[C@@H]1C has PAMPA 3.2 × 10^-6 cm/s.
CC(=O)N1CCC[C@H]1C(=O)N(C)[C@@H](CC(C)C)C(=O)N[C@@H]1C(=O)N[C@H](CC(C)C)C(=O)N[C@H](CC(C)C)C(=O)N[C@@H](CC(C)C)C(=O)N[C@@H](C)C(=O)N[C@H](CC(C)C)C(=O)N2CCC[C@@H]2C(=O)O[C@@H]1C has PAMPA 0.051 × 10^-6 cm/s.
CC(=O)N1CCC[C@H]1C(=O)N(C)[C@@H](CC(C)C)C(=O)N[C@@H]1C(=O)N(C)[C@@H](CC(C)C)C(=O)N(C)[C@@H](CC(C)C)C(=O)N(C)[C@@H](CC(C)C)C(=O)N[C@@H](C)C(=O)N[C@H](CC(C)C)C(=O)N2CCC[C@H]2C(=O)O[C@@H]1C has PAMPA 0.2 × 10^-6 cm/s.
CC(=O)N1CCC[C@@H]1C(=O)N(C)[C@@H](CC(C)C)C(=O)N[C@@H]1C(=O)N(C)[C@H](CC(C)C)C(=O)N[C@H](CC(C)C)C(=O)N(C)[C@H](CC(C)C)C(=O)N[C@H](C)C(=O)N[C@@H](CC(C)C)C(=O)N2CCC[C@H]2C(=O)O[C@@H]1C has PAMPA 1 × 10^-6 cm/s.
CC(=O)N1CCC[C@@H]1C(=O)N(C)[C@H](CC(C)C)C(=O)N[C@@H]1C(=O)N[C@@H](CC(C)C)C(=O)N(C)[C@H](CC(C)C)C(=O)N(C)[C@@H](CC(C)C)C(=O)N(C)[C@@H](C)C(=O)N[C@H](CC(C)C)C(=O)N2CCC[C@@H]2C(=O)O[C@@H]1C has PAMPA 1.1 × 10^-6 cm/s.
CC(=O)N1CCC[C@@H]1C(=O)N(C)[C@H](CC(C)C)C(=O)N[C@@H]1C(=O)N[C@H](CC(C)C)C(=O)N(C)[C@@H](CC(C)C)C(=O)N(C)[C@@H](CC(C)C)C(=O)N(C)[C@@H](C)C(=O)N[C@@H](CC(C)C)C(=O)N2CCC[C@H]2C(=O)O[C@@H]1C has PAMPA 2.1 × 10^-6 cm/s.
CC(=O)N1CCC[C@@H]1C(=O)N(C)[C@@H](CC(C)C)C(=O)N[C@@H]1C(=O)N[C@@H](CC(C)C)C(=O)N(C)[C@@H](CC(C)C)C(=O)N(C)[C@@H](CC(C)C)C(=O)N(C)[C@@H](C)C(=O)N[C@@H](CC(C)C)C(=O)N2CCC[C@@H]2C(=O)O[C@@H]1C has PAMPA 7.8 × 10^-6 cm/s.
CC(=O)N1CCC[C@@H]1C(=O)N(C)[C@@H](CC(C)C)C(=O)N[C@@H]1C(=O)N[C@H](CC(C)C)C(=O)N[C@H](CC(C)C)C(=O)N[C@@H](CC(C)C)C(=O)N[C@@H](C)C(=O)N[C@@H](CC(C)C)C(=O)N2CCC[C@@H]2C(=O)O[C@@H]1C has PAMPA 0.062 × 10^-6 cm/s and MDCK 0.5 × 10^-6 cm/s.
CC(=O)N1CCC[C@H]1C(=O)N(C)[C@H](CC(C)C)C(=O)N[C@@H]1C(=O)N[C@H](CC(C)C)C(=O)N(C)[C@@H](CC(C)C)C(=O)N(C)[C@H](CC(C)C)C(=O)N(C)[C@H](C)C(=O)N[C@@H](CC(C)C)C(=O)N2CCC[C@H]2C(=O)O[C@@H]1C has PAMPA 6 × 10^-6 cm/s.
CC(=O)N1CCC[C@@H]1C(=O)N(C)[C@@H](CC(C)C)C(=O)N[C@@H]1C(=O)N(C)[C@H](CC(C)C)C(=O)N(C)[C@H](CC(C)C)C(=O)N(C)[C@@H](CC(C)C)C(=O)N(C)[C@H](C)C(=O)N[C@@H](CC(C)C)C(=O)N2CCC[C@H]2C(=O)O[C@@H]1C has PAMPA 6.8 × 10^-6 cm/s.
CC(=O)N1CCC[C@H]1C(=O)N(C)[C@@H](CC(C)C)C(=O)N[C@@H]1C(=O)N(C)[C@H](CC(C)C)C(=O)N(C)[C@H](CC(C)C)C(=O)N(C)[C@@H](CC(C)C)C(=O)N(C)[C@@H](C)C(=O)N[C@H](CC(C)C)C(=O)N2CCC[C@H]2C(=O)O[C@@H]1C has PAMPA 8.7 × 10^-6 cm/s.
CC(=O)N[C@@H]1C(=O)N2CCC[C@H]2C(=O)N(C)[C@H](CC(C)C)C(=O)N[C@H](CC(C)C)C(=O)N[C@H](CC(C)C)C(=O)N[C@@H](CC(C)C)C(=O)N[C@@H](C)C(=O)N[C@@H](CC(C)C)C(=O)N2CCC[C@@H]2C(=O)O[C@@H]1C has PAMPA 0.05 × 10^-6 cm/s.
CC(=O)N1CCC[C@H]1C(=O)N[C@@H]1C(=O)N[C@H](CC(C)C)C(=O)N[C@H](CC(C)C)C(=O)N[C@H](CC(C)C)C(=O)N(C)[C@H](CC(C)C)C(=O)N(C)[C@H](C)C(=O)N[C@@H](CC(C)C)C(=O)N2CCC[C@@H]2C(=O)O[C@@H]1C has PAMPA 1.4 × 10^-6 cm/s.
CC(=O)N1CCC[C@@H]1C(=O)N(C)[C@@H](CC(C)C)C(=O)N[C@@H]1C(=O)N(C)[C@@H](CC(C)C)C(=O)N[C@@H](CC(C)C)C(=O)N(C)[C@@H](CC(C)C)C(=O)N(C)[C@H](C)C(=O)N[C@H](CC(C)C)C(=O)N2CCC[C@@H]2C(=O)O[C@@H]1C has PAMPA 4.7 × 10^-6 cm/s.
CC(=O)N1CCC[C@H]1C(=O)N(C)[C@H](CC(C)C)C(=O)N[C@@H]1C(=O)N[C@H](CC(C)C)C(=O)N[C@H](CC(C)C)C(=O)N[C@H](CC(C)C)C(=O)N(C)[C@H](C)C(=O)N[C@H](CC(C)C)C(=O)N2CCC[C@H]2C(=O)O[C@@H]1C has PAMPA 0.3 × 10^-6 cm/s.
CC(=O)N1CCC[C@H]1C(=O)N(C)[C@H](CC(C)C)C(=O)N[C@@H]1C(=O)N[C@H](CC(C)C)C(=O)N(C)[C@H](CC(C)C)C(=O)N(C)[C@@H](CC(C)C)C(=O)N[C@@H](C)C(=O)N[C@@H](CC(C)C)C(=O)N2CCC[C@H]2C(=O)O[C@@H]1C has PAMPA 2.2 × 10^-6 cm/s.
CC(=O)N1CCC[C@@H]1C(=O)N(C)[C@@H](CC(C)C)C(=O)N[C@@H]1C(=O)N(C)[C@H](CC(C)C)C(=O)N[C@H](CC(C)C)C(=O)N[C@@H](CC(C)C)C(=O)N[C@@H](C)C(=O)N[C@@H](CC(C)C)C(=O)N2CCC[C@@H]2C(=O)O[C@@H]1C has PAMPA 0.13 × 10^-6 cm/s.
CC(=O)N1CCC[C@H]1C(=O)N[C@@H]1C(=O)N[C@H](CC(C)C)C(=O)N[C@H](CC(C)C)C(=O)N(C)[C@@H](CC(C)C)C(=O)N[C@@H](CC(C)C)C(=O)N[C@H](C)C(=O)N[C@@H](CC(C)C)C(=O)N2CCC[C@@H]2C(=O)O[C@@H]1C has PAMPA 3.9 × 10^-6 cm/s.
CC(=O)N1CCC[C@H]1C(=O)N(C)[C@H](CC(C)C)C(=O)N[C@@H]1C(=O)N(C)[C@@H](CC(C)C)C(=O)N(C)[C@@H](CC(C)C)C(=O)N(C)[C@H](CC(C)C)C(=O)N(C)[C@@H](C)C(=O)N[C@@H](CC(C)C)C(=O)N2CCC[C@H]2C(=O)O[C@@H]1C has PAMPA 5.5 × 10^-6 cm/s.
CC(=O)N1CCC[C@@H]1C(=O)N(C)[C@@H](CC(C)C)C(=O)N[C@@H]1C(=O)N[C@@H](CC(C)C)C(=O)N[C@@H](CC(C)C)C(=O)N(C)[C@@H](CC(C)C)C(=O)N(C)[C@@H](C)C(=O)N[C@@H](CC(C)C)C(=O)N2CCC[C@H]2C(=O)O[C@@H]1C has PAMPA 0.5 × 10^-6 cm/s.

A selection of 2 entries from above:

compound	PAMPA (10^-6 cm/s)	MDCK (10^-6 cm/s)
CC(=O)N1CCC[C@H]1C(=O)N(C)[C@H](CC(C)C)C(=O)N[C@@H]1C(=O)N(C)[C@@H](CC(C)C)C(=O)N(C)[C@@H](CC(C)C)C(=O)N(C)[C@H](CC(C)C)C(=O)N(C)[C@@H](C)C(=O)N[C@@H](CC(C)C)C(=O)N2CCC[C@H]2C(=O)O[C@@H]1C	5.5	n/a
CC(=O)N1CCC[C@@H]1C(=O)N(C)[C@@H](CC(C)C)C(=O)N[C@@H]1C(=O)N(C)[C@H](CC(C)C)C(=O)N[C@H](CC(C)C)C(=O)N(C)[C@H](CC(C)C)C(=O)N[C@H](C)C(=O)N[C@@H](CC(C)C)C(=O)N2CCC[C@H]2C(=O)O[C@@H]1C	1	n/a